# Laboratory results published in PubChem BioAssay AID588855 (National Center for Advancing Translational Sciences (NCATS), 2011).
# Where “and” joins values, the source holds several entries; their conditions need not be identical. Equal values may be shown once. Only a part is listed here, and it is no random draw. Some results for these compounds are left out of this collection, so the calls shown say nothing about other tests. Results filed as inconclusive are left out. Calls of active or inactive are those of the source. Calls come from the whole dose curve; as a rule, active = well fitted inhibition curve with a large enough effect; inconclusive = small, poorly fitted or top-dose-only effect; inactive = no such curve, though single readings can be large or run the other way.
# Assay: qHTS for Inhibitors of TGF-b; note: nearly all actives have a fitted effect of over 65% in size
# Conditions: HepG2 CAGA-GFP TGF-b/SMAD3 reporter, GFP fluorescence, 18 h, TGF-beta stimulated, 500 pg/mL final; at 46.1 µM (top of the series)
# % is set by controls: 0 for no effect and ±100 for the full control effect.
row,SMILES,"activity, negative = inhibition"
1,COc1cc(C(=O)NCC2(N(C)C)CCCCC2)c([N+](=O)[O-])cc1OC,inactive: 0.0518%
2,CN(C)C1(CNC(=O)c2ccc(Br)cc2)CCCCC1,inactive: 5.45%
3,O=C(CBr)c1ccc(Cl)cc1,inactive: -11%
4,O=C(NCC1(N2CCCCC2)CCCCC1)c1cccc(Cl)c1,inactive: 0.0902%
5,COc1ccc(C(=O)NCC2(N(C)C)CCCCC2)cc1Cl,inactive: 17.1%
6,COc1ccc(Cl)cc1C(=O)NCC1(N(C)C)CCCCC1,inactive: -25.5%
7,COc1cccc(C(=O)NCC2(N3CCCCC3)CCCCC2)c1,inactive: -4.63%
8,CC(C)COc1ccc(C(=O)NCC2(N(C)C)CCCCC2)cc1,inactive: 6.1%
9,O=C(OC1CN2CCC1CC2)C(CO)(c1ccccc1)c1ccccc1 (configuration not stated),inactive: 15.1%
10,COc1cccc(C(=O)NCC2(N3CCOCC3)CCCCC2)c1,inactive: 3.55%
11,CN(C)c1cccc(C(=O)NCC2(N(C)C)CCCCC2)c1,inactive: 1.77%
12,O=C(OCCN1CCCC1)C(O)(c1ccccc1)c1ccccc1,inactive: 0.0819%
13,CC(C)Oc1ccc(C(=O)NCC2(N(C)C)CCCCC2)cc1,inactive: 22.4% and inactive: -0.945%
14,COc1ccc(Br)c(C(=O)NCC2(N3CCCCC3)CCCCC2)c1,inactive: -24.4%
15,COc1cc(C(=O)NCC2(N(C)C)CCCCC2)cc(OC)c1OC,inactive: 2.85%
16,Cc1cccc(C(=O)NCC2(N(C)C)CCCCC2)c1,inactive: 5.73%
17,C=C(C)C#CC(O)(C(=O)OC1CCN(C)CC1)c1ccccc1 (configuration not stated),inactive: 0.691%
18,CN1[C@@H]2CC[C@H]1CC(OC(=O)C(O)(c1ccccc1)c1ccccc1)C2 (some centres not stated),inactive: 8.48%
19,O=C(NCC1(N2CCCCC2)CCCCC1)c1cc([N+](=O)[O-])ccc1Cl,inactive: 0.522%

row,SMILES,"activity, negative = inhibition"
1,CN(C)C1(CNC(=O)c2ccccc2F)CCCCC1,inactive: 6.32%
2,Cc1ccc(C(=O)NCC2(N3CCCCC3)CCCCC2)cc1,inactive: -11.9%
3,CC(C)N1C(=O)CC2(CCN(CCOC(=O)C(O)(c3ccccc3)c3ccccc3)CC2)C1=O,inactive: 3.53%
4,COc1cc(SC)ccc1C(=O)NCC1(N(C)C)CCCCC1,inactive: 4.09%
5,CCN(CC)CC(C)C(C)OC(=O)C(O)(c1ccccc1)c1ccccc1 (configuration not stated),inactive: -0.605%
6,CN(C)C1(CNC(=O)c2cccc(Cl)c2)CCCCC1,inactive: -22%
7,CCCCOc1ccccc1C(=O)NCC1(N(C)C)CCCCC1,inactive: 2.65%
8,CN(C)C1CCCC1OC(=O)C(O)(c1ccccc1)c1ccccc1 (configuration not stated),inactive: 14.4%
9,CN(C)c1ccc(C(=O)NCC2(N(C)C)CCCCC2)cc1,inactive: 6.39%
10,CN(C)C1(CNC(=O)c2ccccc2[N+](=O)[O-])CCCCC1,inactive: 23.3%
11,Cc1ccccc1C(=O)NCC1(N2CCCCC2)CCCCC1,inactive: 16.9%
12,O=C(NCC1(N2CCCCC2)CCCCC1)c1cccc(Br)c1,inactive: 3.81%
13,Cc1cc(C(=O)NCC2(N3CCCCC3)CCCCC2)ccc1[N+](=O)[O-],inactive: 5.87%
14,CCN1CCCC(OC(=O)C2(O)c3ccccc3C=Cc3ccccc32)C1 (configuration not stated),inactive: -9.9%
15,CCOc1cccc(C(=O)NCC2(N(C)C)CCCCC2)c1,inactive: 26.3%
16,COc1ccc(C(=O)NCC2(N(C)C)CCCCC2)cc1,inactive: 15.4%
17,O=C(NCC1(N2CCCCC2)CCCCC1)c1cc(F)c(F)cc1Cl,inactive: 1.28%
18,C=CCN1CCN(CCOC(=O)C(O)(c2ccccc2)c2ccccc2)CC1,inactive: -2.66%
